Measurements reported in published antibiotic growth screens (doi:10.1038/s41589-023-01349-8).
Some of the results follow.

Test system: A. baumannii ATCC 17978
Experiment: relative growth (fraction of control); higher = less inhibition
Settings: 50 µM

Row | Compound | relative growth
1 | COCC#Cc1ccc2c(c1)O[C@H](CN(C)S(C)(=O)=O)[C@@H](C)CN([C@@H](C)CO)S2(=O)=O | 0.985
2 | CN([C@@H](Cc1ccc(OS(=O)(=O)c2cccc3cnccc23)cc1)C(=O)N1CCN(c2ccccc2)CC1)S(=O)(=O)c1cccc2cnccc12 | 1.1
3 | CC1=NN(c2ccc(C)c(C)c2)C(=O)/C1=N\Nc1cccc(-c2cccc(C(=O)O)c2)c1O | 1.28
4 | Cc1nnsc1-c1onc(C)c1C(N)=O | 0.891
5 | CC(C)N1C(=O)NC(=O)[C@@H]1CC(=O)O | 1.12
6 | CN(C)CCCCNC(=O)[C@@H]1C[C@@H]2C(=O)N[C@@H](CCCC[N+](C)(C)C)C(=O)N2[C@@H]1c1cccc(OCCO)c1 | 1.03
7 | COCCCNC(=O)[C@]1(Cc2ccccc2N=[N+]=[N-])N=C(c2ccc(OCCCO)cc2)O[C@@H]1c1ccccc1 | 0.747
8 | NCCCCCNC(=O)[C@@H]1C[C@@H]2C(=O)N[C@@H](Cc3ccccc3)C(=O)N2[C@@H]1c1cccc(OCCO)c1 | 1.11
9 | O=c1cc(-c2ccccc2)oc2ccccc12 | 0.867
10 | Cn1cnc(S(=O)(=O)N[C@@H]2CC[C@@H](CC(=O)Nc3ccccc3)O[C@H]2CO)c1 | 1
11 | COc1cc(O)c2c(=O)c(OC)c(-c3ccc(OC)c(OC)c3)oc2c1 | 0.738
12 | CN(C)Cc1cn(CC[C@@H]2CC[C@@H](NS(=O)(=O)c3ccccc3)[C@@H](CO)O2)nn1 | 1.07
13 | COc1cc2c(cc1OC)-c1onc(-c3ccc(OCCO[Si](C(C)C)(C(C)C)C(C)C)cc3)c1CCCN(C[C@@H](C)OC(=O)NCCCCCC(=O)NO)CC2 | 0.821
14 | Cn1cnc(S(=O)(=O)N2C[C@H](O)COC[C@H]3O[C@@H](CC(=O)NC4CCCC4)CC[C@@H]32)c1 | 1
15 | Nc1ccn(C2O[C@H](CO)[C@@H](O)[C@@H]2O)c(=O)n1 (stereo partly drawn) | 1.09
16 | C[C@@H]1[C@H]2[C@H](O[C@@H]3O[C@H](CO)[C@@H](O)[C@H](O)[C@H]3O)OC=C(C(=O)O)[C@H]2C[C@@H]1OC(=O)/C=C/c1ccc(O)cc1 | 0.979
17 | NC(=O)CSc1ncn(-c2ccccc2)n1 | 0.977
18 | CCO[C@H]1OC(C(N)=O)=C[C@@H](C)[C@@H]1CCCO | 1.14
19 | COC(=O)c1c(C)c2c(c(C)c1OC)OC(=O)c1c(C)c(Cl)c(OC)c(Cl)c1O2 | 1.09
20 | CN1CC2(COC2)OCCS1(=O)=O | 0.944
21 | CN1CCN2c3ncccc3Cc3ccccc3C2C1 (stereo not drawn) | 0.894
22 | NCCC(=O)N[C@@H](Cc1c[nH]cn1)C(=O)O | 1.05
23 | Cc1cc(C)nc(NS(=O)(=O)c2ccc(N)cc2)n1 | 1.3
24 | Cc1ccc(S(=O)(=O)N(C)C[C@H]2Oc3ncc(Br)cc3C(=O)N([C@H](C)CO)C[C@@H]2C)cc1 | 0.832
25 | Nc1nnc(CNC(=O)c2ccccc2)[nH]1 | 0.968
26 | c1coc(CNc2nc[n+]3c4c2ncn4CC3)c1 | 1.02
27 | CC(C)=CCc1c2c(c3occ(-c4ccc(O)c(O)c4)c(=O)c3c1O)C=CC(C)(C)O2 | 1.03

Row | Compound | relative growth
28 | COc1cc(NS(=O)(=O)c2ccc(N)cc2)ncn1 | 1.08
29 | C=CCC[C@@H](Cc1ccc(F)cc1)C(=O)O[C@H](CNC(=O)[C@H](CC=C)CC(=O)N(CCO)Cc1ccccc1)c1ccccc1 | 1.05
30 | COC(=O)N/N=C/c1c[n+]([O-])c2ccccc2[n+]1[O-] | 0.128
31 | O=C(C[C@@H]1CC[C@H]2[C@@H](COC[C@H](O)CN2C(=O)c2ccncc2)O1)NCc1ccc(-c2ccccc2)cc1 | 1.08
32 | CC(C)(C)C(=O)Nc1c[nH]c(=O)[nH]c1=O | 0.977
33 | Cn1cnc(S(=O)(=O)N[C@@H]2CC[C@@H](CC(=O)N3CCN(c4ccccc4)CC3)O[C@@H]2CO)c1 | 1.05
34 | Cc1ncc([N+](=O)[O-])cc1C(=O)O | 0.813
35 | O=S1(=O)C[C@H](NCc2cccnc2)[C@@H](O)C1 | 1.08
36 | CN(C(=O)CN(CCO)CC(=O)N(C)C(C)(C)Cc1ccccc1)C(C)(C)Cc1ccccc1 | 0.434
37 | O=C(C[C@@H]1CC=CCC[C@H](Cc2ccc(F)cc2)C(=O)OC[C@H](Cc2c[nH]c3ccccc23)NC1=O)N[C@@H](CO)Cc1ccccc1 | 1.24
38 | CCOC(=O)Nc1nc2ccccc2[nH]1 | 0.806
39 | Cc1ccccc1S(=O)(=O)N1C[C@H](O)COC[C@H]2O[C@@H](CC(=O)NCCc3ccccc3)CC[C@@H]21 | 0.984
40 | C=CCC[C@@H](Cc1ccc(F)cc1)C(=O)OC[C@H]1CCCN1C(=O)[C@H](CC=C)CC(=O)N(CCO)Cc1ccccc1 | 0.903
41 | COC1=CC(C)[C@@H]2C[C@H]3OC(=O)C[C@H]4C(C)=C(OC)C(=O)C([C@@]34C)[C@@]2(C)C1=O (stereo partly drawn) | 0.994
42 | O=C(C[C@@H]1CC[C@H](NC(=O)C2CC2)[C@H](CO)O1)NCCCN1CCOCC1 | 1.04
43 | C=CCC[C@H](Cc1ccc(F)cc1)C(=O)OC[C@@H](NC(=O)[C@H](CC=C)CC(=O)N(CCO)Cc1ccccc1)c1ccccc1 | 1.3
44 | COC(=O)[C@@H](Cc1ccccc1)N[C@H](/C=C/C1CC1)[C@@H](O)CCn1cc(-c2ccc(C(=O)NO)cc2)nn1 | 1.01
45 | C=CC[C@H](CC(=O)N(CCO)Cc1ccccc1)C(=O)N[C@@H](COC(=O)[C@H](CC=C)CC(=O)OC(C)(C)C)Cc1c[nH]c2ccccc12 | 1.22
46 | COCCOC(=O)N1C(=O)[C@@]2(c3cc(C#CCCO)ccc31)[C@H](c1ccccc1OCCO)N1[C@H](c3ccccc3)[C@H](c3ccccc3)OC(=O)[C@H]1[C@@H]2C(=O)NC[C@H](O)c1ccccc1 | 1.24
47 | COc1ccc(-c2oc3cc(OC)c(OC)c(OC)c3c(=O)c2OC)cc1OC | 1.1
48 | NC(=O)C[C@H](N)C(=O)O.O | 0.894
49 | CC(=O)OCC1=C(C(=O)[O-])N2C(=O)[C@@H](NC(=O)CSc3ccncc3)[C@H]2SC1.[Na+] | 0.895
50 | C[C@H]1CN([C@@H](C)CO)S(=O)(=O)c2ccc(C#Cc3cccc(F)c3)cc2O[C@H]1CN(C)C(=O)CN1CCOCC1 | 0.883
51 | C[C@@H](O)C#Cc1ccc2c(c1)O[C@@H](CN(C)C(=O)c1ccncc1)[C@@H](C)CN([C@@H](C)CO)S2(=O)=O | 1
52 | O=C(O)c1ccc[n+]([O-])c1 | 1.04
53 | CC(C)(CO)C(O)C(=O)NCCC(=O)NCCSSCCNC(=O)CCNC(=O)C(O)C(C)(C)CO (stereo not drawn) | 0.986
